AlphaSeq binding of Ab-91 heavy chain variants to a spike HR2 peptide

All variants were tested on one target, the spike HR2 peptide PDVDLGDISGINAS (SARS-CoV-2).

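The starting antibody came from a phage panning campaign against this peptide. In library AAYL51, one, two or three CDR residues were substituted; doubles and triples were drawn at random. The scFvs were displayed on barcoded MATa yeast, the peptide on MATalpha yeast. Mating (16 h, 30 °C) was followed by selection of diploids and sequencing of their barcodes. Each replicate has its own calibration line, from reference interactions of the BCL2 family. The assay was run in three technical replicates.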

Parent scFv Ab-91: VL joined to VH by a (GGGGS)3 linker. Changes lie in the heavy chain CDRs alone.
VL: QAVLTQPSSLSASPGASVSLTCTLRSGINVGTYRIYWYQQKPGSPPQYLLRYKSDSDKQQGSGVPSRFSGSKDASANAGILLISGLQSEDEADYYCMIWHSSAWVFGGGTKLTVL
VH: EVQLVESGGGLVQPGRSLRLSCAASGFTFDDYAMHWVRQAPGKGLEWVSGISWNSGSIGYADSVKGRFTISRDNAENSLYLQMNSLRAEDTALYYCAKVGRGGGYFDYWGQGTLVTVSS

The parent's heavy chain CDRs are GFTFDDYAMH, GISWNSGSIGYADSVK, VGRGGGYFDY; each variant's own CDRs replace them letter for letter.
Kd is apparent (estimated from mating counts) and averaged on the log scale over replicates with a signal. Smaller is tighter.
"nd" means that the variant was in the library but no mating with the target was seen in any replicate; the authors take this as a sign of poor binding, and no number exists.

CDR-H1	CDR-H2	CDR-H3	Kd	detected
GFTFDDYAMH	GICWNSGSIGYADSVK	VGWSGGYFDY	nd	0/3
GFTFDDYAMH	GISWNSGWIGYADPVK	VGCGGGYFDY	15 µM	1/3
GFTFVDYAMH	GISWNSGSIGYADSVK	VGRGGGYFDS	13 nM	3/3
GFTFDDYAMH	GISVNSGSIGYADVVK	VGRGGGYFDY	690 nM	3/3
GFTFDDYAMH	GWSCNSGRIGYADSVK	VGRGGGYFDY	nd	0/3
GFTFDDYAMH	GIHWNSGSIGKADSVK	VGRGGGYFDY	nd	0/3
GGTFDDYAMH	GISWNSGSIGYADSVL	VGRGGGYFDY	1.7 µM	3/3
GFTFDDVAMH	GISWESGSIGYADSVT	VGRGGGYFDY	1.2 µM	1/3
GFTFDDYASH	GISWNSGSIGPADSVK	VGRGTGYFDY	20 µM	1/3
GFTFDDYAMH	GISWNSFSIGYADSVK	PGRGGGNFDY	14 µM	1/3
GFKPADYAMH	GISWNSGSIGYADSVK	VGRGGGYFDY	3.7 µM	1/3
GFTFDDYAMH	GISWNSGQIGYADSVG	VGRGWGYFDY	nd	0/3
GFTFDDYAMH	GIAWNSGSIGYADSFK	VLRGGGYFDY	nd	0/3
GFTFDDYAMH	GISWNSGSGGYTDSVK	VGRGGGYMDY	nd	0/3
SFTFPDYAMH	GISWQSGSIGYADSVK	VGRGGGYFDY	nd	0/3
GKTFDDYAMH	HISWNYGSIGYADSVK	VGRGGGYFDY	nd	0/3
GFTFDDYAMH	GISENSGSIGAADSVK	VGRGGGSFDY	60 µM	1/3
GFTFDDYAMH	GISWNSGSIGYADCKK	VGRGCGYFDY	8.9 µM	1/3
GFTFDGYAMH	GISWNSGSIGYADSVK	VGRGGGYFDG	41 µM	3/3
GFTFDDYAMH	GYSWNSGSIGYNDSVQ	VGRGGGYFDY	nd	0/3
GFTFDDYAAH	GISWISGSIGYVDSVK	VGRGGGYFDY	130 µM	2/3
GFTFDDYALH	MISWNSGSIGYADSVK	VGRGGGYFDT	750 nM	1/3
GFTFKDYAMH	GISWNSGSIGYADAVK	VGRGGGYFDY	1.2 nM	3/3
GFTFDDYAMH	GISQNSGSIGYADNVK	VGRPGGYFDY	130 µM	1/3
FFTFDPYAMH	GISWNSGSIGYADSVA	VGRGGGYFDY	nd	0/3
GFTFTDYAMH	GISWNSGSIGYADSVK	VGNDGGYFDY	nd	0/3
GFTFDDYAVH	GISWNSGSIGYADSVK	VGRGVGYFDY	720 µM	2/3
GPTFDDGAMH	GISWNSGSIGYADSVK	VGRGGGYFIY	nd	0/3
WFTFDDYAMH	MISWNSGSIGYHDSVK	VGRGGGYFDY	35 µM	1/3
GFTFDDYAMH	GISGNSGSIGYADSVK	VGRHLGYFDY	17 nM	3/3
GFTFDDNAMH	GISWNSGSIGYADSVK	VGDGGGYFDY	13 µM	2/3
GFTFDDYAMH	GIAWNSGSIGAADSVK	VGRGGGYFDE	nd	0/3
GSTFDDYAMH	GYSWNSGRIGYADSVK	VGRGGGYFDY	78 µM	2/3
GFTFDDYAMH	GISWWSGSIGYADSVK	VGRGGGKCDY	nd	0/3
GFTFDDYAMH	GISWESGSIGYADSYK	VGRGGGYFVY	nd	0/3
GFTFDDYAMH	GGSPNSGSIGYGDSVK	VGRGGGYFDY	nd	0/3
GFTFDDYAMH	GISWNSGSIGYADSVK	VGRGGGQHLY	nd	0/3
GFTFDDYASH	GISWNSGSAGYADSVK	VGRGGGRFDY	29 µM	1/3
MFTFDDYNMH	GISWNSGSIGYADSVK	VGRGCGYFDY	nd	0/3
GFTFDDYAMT	GISWNSGSIGYADSVK	VGWGGGYFDK	25 µM	2/3
GKTFDDYAMH	GISWNDGSIGYADSVK	VGRGGGYVDY	28 µM	2/3
GFTFDDYAMH	GISWNSGSIGYADSVK	VGLYGGYFDY	26 nM	3/3
GFTFDDYWMH	GIMWNSGSIGYADTVK	VGRGGGYFDY	290 µM	1/3
GFTFDDYAMH	GISWNSGSIGYYDSLK	VGRGTGYFDY	2.3 µM	1/3
GFTFDDYACH	GISWNLGSIGYADSVQ	VGRGGGYFDY	4.3 µM	3/3
GFTPDEYAMH	SISWNSGSIGYADSVK	VGRGGGYFDY	nd	0/3
GFTFKDYAMH	GISWNPGSIGYADGVK	VGRGGGYFDY	7.7 µM	3/3
GFTFDDYAMH	GISENSGSIGYADSVK	CGRGGGYFGY	930 µM	1/3
GFTFDDYAEH	GISWNSGSIGYADSVK	VLRGGGYFCY	nd	0/3
GFTFDDYAMH	GISENSGSIGYADSVQ	VQRGGGYFDY	47 µM	1/3
TFTFDDYAMH	GISWNSGSIGYADSVK	VGLGGGYFDA	2.7 µM	3/3
GFTFDDYAMH	GISWNSGSTGYADSDA	VGRGGGYFDY	nd	0/3
GFTFDDYAMH	GISWNSGSINYADSVK	VGMGGQYFDY	nd	0/3
GFTNDDYAMH	GISWGSGSHGYADSVK	VGRGGGYFDY	nd	0/3
GFTQDDYAMH	GIRWNSGSIGYADSVK	VGRGEGYFDY	390 nM	1/3
GFTFDLYPMH	GISWNSGSIGYADEVK	VGRGGGYFDY	nd	0/3

Repeated from above, the 4 best binders with a signal in all replicates:

| CDR-H1 | CDR-H2 | CDR-H3 | Kd | detected |
|---|---|---|---|---|
| GFTFKDYAMH | GISWNSGSIGYADAVK | VGRGGGYFDY | 1.2 nM | 3/3 |
| GFTFVDYAMH | GISWNSGSIGYADSVK | VGRGGGYFDS | 13 nM | 3/3 |
| GFTFDDYAMH | GISGNSGSIGYADSVK | VGRHLGYFDY | 17 nM | 3/3 |
| GFTFDDYAMH | GISWNSGSIGYADSVK | VGLYGGYFDY | 26 nM | 3/3 |

For reference, the parent read 72 nM as the reference entry and 7.5 nM as a member of this library.
Nonspecific signal, from three strains lacking the peptide, appeared in 21% of pairings of library AAYL51, centred on 34 µM (5% of these signals below 1.8 µM); values are not corrected for it.

Reference: Engelhart et al. 2022, doi:10.1038/s41597-022-01779-4. File: FLAb, binding data.